Source: paper PMC6584639 (Nature Communications, 2019)

Biological target: the molecule itself
Experiment: SEC + other: glycerol gradient sedimentation; hydrodynamic analysis of KIF1C-Flag in human cell lysate at 150 mM NaCl; fractions immunoblotted with anti-KIF1C; apparent MW

B1: KIF1C-Flag (KIF1C-2xFlag) (natural protein, human, UniProt O43896 1-1103, looked up)
chain: MAGASVKVAVRVRPFNARETSQDAKCVVSMQGNTTSIINPKQSKDAPKSFTFDYSYWSHTSTEDPQFASQQQVYRDIGEEMLLHAFEGYNVCIFAYGQTGAGKSYTMMGRQEPGQQGIVPQLCEDLFSRVSENQSAQLSYSVEVSYMEIYCERVRDLLNPKSRGSLRVREHPILGPYVQDLSKLAVTSYADIADLMDCGNKARTVAATNMNETSSRSHAVFTIVFTQRCHDQLTGLDSEKVSKISLVDLAGSERADSSGARGMRLKEGANINKSLTTLGKVISALADMQSKKRKSDFIPYRDSVLTWLLKENLGGNSRTAMIAALSPADINYEETLSTLRYADRTKQIRCNAIINEDPNARLIRELQEEVARLRELLMAQGLSASALEGLKTEEGSVRGALPAVSSPPAPVSPSSPTTHNGELEPSFSPNTESQIGPEEAMERLQETEKIIAELNETWEEKLRKTEALRMEREALLAEMGVAVREDGGTVGVFSPKKTPHLVNLNEDPLMSECLLYHIKDGVTRVGQVDMDIKLTGQFIREQHCLFRSIPQPDGEVVVTLEPCEGAETYVNGKLVTEPLVLKSGNRIVMGKNHVFRFNHPEQARLERERGVPPPPGPPSEPVDWNFAQKELLEQQGIDIKLEMEKRLQDLENQYRKEKEEADLLLEQQRLYADSDSGDDSDKRSCEESWRLISSLREQLPPTTVQTIVKRCGLPSSGKRRAPRRVYQIPQRRRLQGKDPRWATMADLKMQAVKEICYEVALADFRHGRAEIEALAALKMRELCRTYGKPDGPGDAWRAVARDVWDTVGEEEGGGAGSGGGSEEGARGAEVEDLRAHIDKLTGILQEVKLQNSSKDRELQALRDRMLRMERVIPLAQDHEDENEEGGEVPWAPPEGSEAAEEAAPSDRMPSARPPSPPLSSWERVSRLMEEDPAFRRGRLRWLKQEQLRLQGLQGSGGRGGGLRRPPARFVPPHDCKLRFPFKSNPQHRESWPGMGSGEAPTPLQPPEEVTPHPATPARRPPSPRRSHHPRRNSLDGGGRSRGAGSAQPEPQHFQPKKHNSYPQPPQPYPAQRPPGPRYPPYTTPPRMRRQRSAPDLKESGAAV
notes: KIF1C, human, full length; also called pKIF1C-2xFlag; pKIF1C^RIP1-2Flag; source: human cell lysate (hydrodynamic analysis); HEK293, transfected, in lysate (co-IP)
  stoichiometry N: 2
